Holding throughout (type): in vivo
Data set [1] concerns Kentucky bluegrass. As to the kind of experiment: Greenhouse Kentucky bluegrass height and quality, ABA and trinexapac-ethyl (Example 1). Conditions: 200 ppm ABA; 23 days after treatment; visual 0-9 scale. The method, then: (§1) Greenhouse studies were conducted at the Research Farm of Valent BioSciences Corporation (Long Grove, Ill.). Grasses were grown in pots (18 cm in diameter and 18 cm in height) filled with Promix BX (available from Premier Horticulture Inc. Quakertown, Pa.). Grass was irrigated daily by an overhead irrigation system. The irrigation system was set up with multiple Tornado Mist Spray Heads (10 GPH at 40 PSI-Wetted diameter, NDS/Raindrip, Woodland Hills, Calif.). Spray heads were 1-meter apart from each other and 75 cm above grass canopy. Grass was cut with a scissor at 2.5 cm height and fertilizer (1 g/L all purpose fertilizer 20-20-20, available from The Scotts Company, Marysville, Ohio) was applied once per week.
Chemical solutions were prepared with distilled water. Tween 20 (0.05% v/v) was used as an, adjuvant. […]
(§2) When treated with paclobutrazol or uniconazole-P, turfgrass received irrigation within 24 hours after application to flush chemicals to the root zone. […] Turfgrass quality, turfgrass height or clip fresh weight was measured on assigned dates. […] Turfgrass height was measured as the distance between canopy surface and soil. […]
(§3) All experiments were randomized complete block experimental design. Data were analyzed by analysis of variance. […]

The subject of data set [2] is Kentucky bluegrass. As to the kind of experiment: Greenhouse Kentucky bluegrass height and quality, ABA and paclobutrazol (Example 2). Conditions: 200 ppm ABA; 7 days after treatment; visual 0-9 scale. The method, then: as §1, with “week. […]” for “week.”
as §2, §3
Kentucky bluegrass sod (unknown variety) was purchased from Deak sod farms, Inc. (Union Grove, Wis.). […] Turfgrass quality was evaluated at 7 days after treatment, and turfgrass height was measured at 7 and 28 days after treatment. […]

Data set [3] concerns creeping bentgrass. As to the kind of experiment: Golf course green creeping bentgrass height, clip weight and quality, ABA and uniconazole-P (Example 5). Conditions: 200 ppm ABA; throughout the study (not shown). The method, then: Field studies were conducted at the nursery green or the practice green at Countryside golf course (Mundelein, Ill.). Both greens were sand based and growing Penncross creeping bentgrass. Grass was managed with typical Illinois golf course management practices.
Chemical solutions were prepared with distilled water. Tween 20 (0.05% v/v) was used as an, adjuvant. Both trinexapac-ethyl (commercial product Primo Maxx, 11.3% active ingredient) and paclobutrazol (commercial product Trimmit 2SC, 22.3% active ingredient) were purchased from Syngenta Crop Protection Inc. (Greensboro, N.C.). Uniconazole-P (commercial product Sumagic, 0.55% active ingredient) was obtained from Valent U.S.A. Corporation (Walnut Creek, Calif.). ABA (90% or 95% active ingredient) was obtained from Lomon BioTechnology Co., Ltd. (Shichuan, China).
When treated with paclobutrazol or uniconazole-P, turfgrass received irrigation within 24 hours after application to flush chemicals to the root zone. After treatment, turfgrasses were arranged in a randomized complete block experimental design. Turfgrass quality, turfgrass height or clip fresh weight was measured on assigned dates. […] Turfgrass height was measured as the distance between canopy surface and soil. […]
as §3

On to S-abscisic acid [ABA], for which the Quality in data set [1] was 8.0. The Turfgrass quality in data set [2] worked out at 8.0. Further, in data set [3], the “Effect on turfgrass quality” value is given as “No effect on turfgrass quality”.

The values are drawn from patent publication US20080227638A1, “Use of abscisic acid to enhance growth control” (priority 2007, published 2008).
